A word on the inhibition: it is the drop in the measured response relative to a control, in per cent.

Each structure is given as a SMILES string. The list shows a part of the results, in another mix than the full data. The source made the active and inactive calls. Cut-off read from the data, not from the text of the source: active = inhibition above about 50%; inconclusive = no clear call, values can overlap the other calls; inactive = below that.

For 96 molecules, inhibition results are on record in PubChem BioAssay AID1554 (Broad Institute, 2009).

This test can be described thus: PubChem AID 1554. The conditions noted are these: BJeLR (HRASV12) viability, CellTiter-Glo ATP luminescence, 48 h; hits give high values; concentration not given here.
On to `O=P(Nc1nccs1)(c1ccccc1)c1ccccc1`, for which the inhibition is inactive: -4.54%.

Take `CC(C)C(=O)NC(Sc1ccccc1)C(Cl)(Cl)Cl` (stereo unspecified): the inhibition is inactive: 3.46%.

Regarding `Nc1ccc([As](=O)(O)c2ccc([N+](=O)[O-])cc2)cc1`, the inhibition is inactive: -3.11%.

On to `C(Cc1nn[nH]n1)Cc1nn[nH]n1`, for which the inhibition is inactive: -4.64%.

As to `O=C(OC1CN2CCC1CC2)c1cccc(Cl)c1` (stereo unspecified), the inhibition was inactive: -2.68%.

`O=[N+]([O-])c1ncn(CCn2cnc([N+](=O)[O-])n2)n1`: the inhibition is inactive: 11.5%.

For the molecule `CC(=O)NC(SC(=S)N(C)C)C(Cl)(Cl)Cl` (stereo unspecified), the inhibition is inactive: -11.2%.

Regarding `O=[N+]([O-])c1ccc(OP2(=O)COCCO2)cc1` (stereo unspecified), the inhibition is inactive: -1.4%.

Regarding `O=[N+]([O-])c1ccc(O)c(/C=N/Nc2ccc([N+](=O)[O-])cc2[N+](=O)[O-])c1`, the inhibition is inactive: 18.6%.

Consider `O=[N+]([O-])c1cc([N+](=O)[O-])c(NCC2CCS(=O)(=O)C2)c([N+](=O)[O-])c1` (stereo unspecified), for which the inhibition was inactive: 2.79%.

With `Cc1cc(-c2cccc3ccccc23)c(C)cn1.O=[N+]([O-])c1cc([N+](=O)[O-])c(O)c([N+](=O)[O-])c1`, the inhibition is inactive: 1.42%.

On to `O=[As](O)(c1ccccc1)c1ccc(O)cc1`, for which the inhibition is inactive: 7.48%.

In the case of `C[C@H]1OP(=O)(Oc2ccccc2)[C@H](O)[C@H](O)[C@H]1N=[N+]=[N-]` (stereo partly specified), the inhibition was inactive: -0.0799%.

Turning to `O=P(Nc1nc2ccccc2s1)(c1ccccc1)c1ccccc1`, the inhibition is inactive: -2.42%.

Take `CN(C)CCOC(=O)C(O)(c1ccccc1)C1CCCCC1` (stereo unspecified): the inhibition was inactive: 3.53%.

As for `COc1ccc(NP(C)(=O)Oc2ccccc2OC)cc1` (stereo unspecified), the inhibition was inactive: 10.7%.

With `COc1ccc(OP(C)(=O)Nc2cccc(Br)c2)cc1` (stereo unspecified), the inhibition is inactive: 0.585%.

For `CN(C)C1(CNC(=O)c2ccc(Cl)c(S(N)(=O)=O)c2)CCCCC1`, the inhibition was inactive: 0.731%.

As for `O=P(Nc1ccccn1)(c1ccc(Br)cc1)c1ccc(Br)cc1`, the inhibition was inactive: 4.19%.

With `O=[As](O)(c1cccs1)c1cccs1`, the inhibition was inactive: -3.22%.

Take `Cc1ccc(OCC(=O)OC2CN3CCC2CC3)cc1` (stereo unspecified): the inhibition is inactive: 5.8%.

With `CP(=O)(Nc1ccc(SC(F)(F)F)cc1)Oc1ccccc1` (stereo unspecified), the inhibition is inactive: -10.3%.

Consider `Nc1cccc([As](=O)(O)c2ccccc2)c1`, for which the inhibition was inactive: 3.05%.

Turning to `CCCOc1ccc(NP(C)(=O)Oc2ccc(Cl)cc2)cc1` (stereo unspecified), the inhibition was inactive: -0.979%.

`O=P1(Nc2ncccn2)COc2ccccc2OC1`: the inhibition is inactive: -2.71%.

`CN1CCCCC1COC(=O)C1(O)c2ccccc2CCc2ccccc21` (stereo unspecified): the inhibition is inactive: 5.75%.

With `COc1ccccc1OP(C)(=O)Nc1c(C)cccc1C` (stereo unspecified), the inhibition was inactive: 1.02%.

As for `O=C(/C=C/c1ccccc1)OC1CN2CCC1CC2` (stereo unspecified), the inhibition was inactive: -5.74%.

As to `CCOC(=O)C(CC)C1=NC(C)(C)Cc2ccccc21.O=[N+]([O-])c1cc([N+](=O)[O-])c(O)c([N+](=O)[O-])c1` (stereo unspecified), the inhibition is inactive: -9.35%.

For `O=[N+]([O-])c1cc([N+](=O)[O-])c(Nc2nnnn2CCO)c([N+](=O)[O-])c1`, the inhibition is inactive: 0.904%.

In the case of `CN(C)C1(CNC(=O)c2ccc(S(C)(=O)=O)cc2)CCCCC1`, the inhibition is inactive: 5.17%.

For `COc1cc(C2NCCC3(OCCO3)C2(C)C)cc(OC)c1OC.O=[N+]([O-])c1cc([N+](=O)[O-])c(O)c([N+](=O)[O-])c1` (stereo unspecified), the inhibition was inactive: 0.801%.

As for `Cc1ccc(C(=O)OC2CN3CCC2CC3)cc1` (stereo unspecified), the inhibition was inactive: 11.4%.

Regarding `CC1CCC(C(C)C)C(OP(=O)(Nc2ccccn2)c2ccccc2)C1` (stereo unspecified), the inhibition was inactive: -2.44%.

Take `Cc1nn(-c2ccccc2)c2c1P(=O)(N1CCOCC1)N(C)C(c1ccccc1)=N2` (stereo unspecified): the inhibition was inactive: 6.62%.

`CC1(CBr)Cn2c(nc3ccccc3c2=O)S1` (stereo unspecified): the inhibition is inactive: 0.839%.

As for `O=[As](O)(c1ccccc1Br)c1ccccc1Br`, the inhibition is inactive: -15.3%.

Consider `CN(C(=O)Cc1ccc(Cl)c(Cl)c1)[C@@H]1CCCC[C@H]1N1CCCC1`, for which the inhibition is inactive: 5.89%.

For `CC(C)/C=N\N=C(\N)N[N+](=O)[O-]`, the inhibition is inactive: -4.81%.

Consider `COc1ccccc1CNC(=O)COC(=O)C(O)(c1ccccc1)c1ccccc1`, for which the inhibition is inactive: -7.14%.

Consider `O=[N+]([O-])c1cc([N+](=O)[O-])c(-c2cnn(-c3ccccc3)c2)c([N+](=O)[O-])c1`, for which the inhibition is inactive: -5.77%.

With `CC(C)(C)C(=O)NC(Sc1ncccn1)C(Cl)(Cl)Cl` (stereo unspecified), the inhibition was inactive: -5.26%.

In the case of `Clc1n[nH]nc1-c1nn[nH][15n]1`, the inhibition is inactive: -5.83%.

Consider `CN(CCCl)Cc1cc(Cl)c(NC2=NCCN2)c(Cl)c1`, for which the inhibition is inactive: -1.4%.

Turning to `CCOP(=O)(Nc1ccc(C)cn1)OCC`, the inhibition is inactive: -0.427%.

On to `CCOP(=O)(NC(=NC(C)c1ccccc1)NC(C)c1ccccc1)OCC` (stereo unspecified), for which the inhibition was inactive: 1.18%.

Take `O=[N+]([O-])c1cc([N+](=O)[O-])c(-n2nnc3ccccc32)c([N+](=O)[O-])c1`: the inhibition is inactive: -3.53%.

Regarding `CCC1=CC2Cc3nc4ccc(Cl)cc4c(N)c3C(C1)C2` (stereo unspecified), the inhibition is inactive: 6.36%.

For `O=P1(Nc2ccccn2)COc2ccccc2OC1`, the inhibition is inactive: 5.38%.

Consider `CCOP(=O)(Nc1cccc2ccccc12)OCC`, for which the inhibition is inactive: 1.37%.

Regarding `CCCOP(=S)(Nc1nc(N)cc(=O)[nH]1)OCCC`, the inhibition was inactive: -3.82%.

On to `Cc1ccc(C)c(NP(C)(=O)Oc2ccccc2)c1` (stereo unspecified), for which the inhibition was inactive: -20.1%.

With `Nc1cccc2c([As](=O)(O)O)cccc12`, the inhibition was inactive: -6.87%.

On to `Cc1ccc(NCCc2c([N+](=O)[O-])cc([N+](=O)[O-])cc2[N+](=O)[O-])cc1`, for which the inhibition was inactive: 0.431%.

As to `CP(=O)(Nc1cccc(Br)c1)Oc1ccccc1` (stereo unspecified), the inhibition was inactive: 6.43%.

As to `Cc1cc(C)cc(OP(C)(=O)Nc2ccccn2)c1` (stereo unspecified), the inhibition was inactive: 2.68%.

As to `CCOC(=O)c1ccc(NP(C)(=O)Oc2cc(C)cc(C)c2)cc1` (stereo unspecified), the inhibition is inactive: 16%.

Take `Cc1cc(C)cc(OP(C)(=O)Nc2ccc(C)cc2C)c1` (stereo unspecified): the inhibition was inactive: 9.74%.

Consider `O=[As](O)(c1cccc(O)c1)c1cccc(O)c1`, for which the inhibition is inactive: -3.16%.

Regarding `Cc1cccc(OCC(=O)OC2CN3CCC2CC3)c1` (stereo unspecified), the inhibition was inactive: -13%.

Regarding `CS(=O)(=O)c1ccc(Cl)c(NC(=O)COC(=O)C(O)(c2ccccc2)c2ccccc2)c1`, the inhibition is inactive: -2.69%.

With `COc1ccccc1OP(C)(=O)Nc1cccc(Br)c1` (stereo unspecified), the inhibition is inactive: 7.53%.

As for `COc1cc(C(=O)NCC2(N3CCOCC3)CCCCC2)cc(Cl)c1OC(C)C`, the inhibition was inactive: 1.07%.

On to `O=[As](O)(O)c1cccnc1`, for which the inhibition was inactive: 0.14%.

`O=C(OC1CN2CCC1CC2)c1ccc(Cl)cc1` (stereo unspecified): the inhibition is inactive: -0.156%.

`CN(C(=O)Cc1ccc(Cl)c(Cl)c1)[C@H]1CC[C@@]2(CCCO2)C[C@@H]1N1CCCC1`: the inhibition was inactive: 2.28%.

In the case of `CC1=NCCc2c1[nH]c1ccccc21.O=[N+]([O-])c1cc([N+](=O)[O-])c(O)c([N+](=O)[O-])c1`, the inhibition is inactive: -2.24%.

For `CN(C)C(=O)c1cc([N+](=O)[O-])cc2c1-c1c(cc([N+](=O)[O-])cc1[N+](=O)[O-])C2=O`, the inhibition was inactive: -8.38%.

With `O=[N+]([O-])c1ccc2c(c1)nnn2O`, the inhibition was inactive: -4.83%.

For the molecule `CCOP1(=S)c2c(C)nn(CCC#N)c2N=C(c2ccc(F)cc2)N1C` (stereo unspecified), the inhibition was inactive: -6.93%.

As for `CN(C(=O)Cc1ccccc1)[C@@H]1CC[C@]2(CCCO2)C[C@H]1N1CCCC1`, the inhibition is inactive: -2.76%.

Turning to `N#CCCN(C(=O)COC(=O)C(O)(c1ccccc1)c1ccccc1)c1ccc(F)cc1`, the inhibition is inactive: 1.49%.

Consider `NC(=O)Nc1ccc([As](=O)(O)O)cc1`, for which the inhibition is inactive: 2.17%.

Consider `O=C(O)COc1ccc([As](=O)(O)O)cc1[N+](=O)[O-]`, for which the inhibition was inactive: -0.49%.

Turning to `Nc1ccccc1[As](=O)(O)c1ccccc1`, the inhibition is inactive: -0.419%.

With `CS(=O)(=O)c1cc([N+](=O)[O-])c2no[n+]([O-])c2c1`, the inhibition was inactive: -1.22%.

Consider `O=P(Nc1nccs1)(c1ccccc1)c1nc2ccccc2s1` (stereo unspecified), for which the inhibition was inactive: 3.22%.

With `O=P(Nc1nccs1)(Oc1ccccc1)Oc1ccccc1`, the inhibition was inactive: 4.52%.

`O=C(O)c1cccc(Nc2c([N+](=O)[O-])cc([N+](=O)[O-])cc2[N+](=O)[O-])c1`: the inhibition is inactive: -0.0289%.

Consider `CCOP1(=S)c2c(C)nn(CCC#N)c2N=C(c2ccccc2F)N1C` (stereo unspecified), for which the inhibition is inactive: 15.1%.

On to `Cc1cc(C)cc(OP(C)(N)=O)c1` (stereo unspecified), for which the inhibition was inactive: 1.37%.

Turning to `O=[N+]([O-])c1cc([N+](=O)[O-])c(-c2ccn[nH]2)s1`, the inhibition was inactive: -13%.

Turning to `COc1ccc(OP(C)(=O)Nc2cccc(F)c2)cc1` (stereo unspecified), the inhibition is inactive: -7.06%.

As for `CCN(CC)C(=S)SC(NC=O)C(Cl)(Cl)Cl` (stereo unspecified), the inhibition was inactive: 14.2%.

For `CC(C)NC(=O)NP(=O)(Oc1ccccc1)Oc1ccccc1`, the inhibition is inactive: 5.38%.

Regarding `COc1ccccc1OP(C)(=O)Nc1cc(Cl)ccc1C` (stereo unspecified), the inhibition was inactive: -3.87%.

For the molecule `CC(C)c1ccc(OP(=O)(Nc2ccccn2)Oc2ccccc2F)cc1` (stereo unspecified), the inhibition is inactive: -19.5%.

Regarding `Cc1ccc(NP(C)(=O)Oc2ccccc2)c(C)c1` (stereo unspecified), the inhibition is inactive: 9.49%.

With `COc1ccccc1OP(C)(=O)Nc1ccc(C)cc1` (stereo unspecified), the inhibition was inactive: -4.97%.

Take `ClCCSc1nnc(-c2cccnc2)o1`: the inhibition was inactive: 0.956%.

Regarding `CCOC(=O)c1ccc(NP(C)(=O)Oc2ccccc2)cc1` (stereo unspecified), the inhibition was inactive: -8.02%.

With `Cc1ccc2nc3c(c(C)c2c1)CC(C(Cl)Cl)S3` (stereo unspecified), the inhibition was inactive: 1.84%.

As to `O=[N+]([O-])c1ccc2c(c1)C=Nc1ccccc1O2`, the inhibition was inactive: 3.06%.

For `Cc1cccc(C)c1OP(C)(N)=O` (stereo unspecified), the inhibition is inactive: 7.39%.

Regarding `CC(C)(C)c1ccc(OP(C)(=O)Nc2ccc(SC(F)(F)F)cc2)cc1` (stereo unspecified), the inhibition is inactive: -17.7%.

Turning to `Cc1ccc(OP(=O)(Nc2ccc([N+](=O)[O-])cn2)Oc2ccc(C)cc2)cc1`, the inhibition is inactive: 8.9%.
